The experiment deals with Pim-1 kinase (Homo sapiens, UniProt P11309). Description: Promega Kinase-Glo Pim-1 kinase inhibition assay.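 Also: in vitro Pim-1 reaction run 2 h at 30 °C, then leftover ATP measured by luciferase luminescence, where signal falls as kinase activity rises.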 Particulars: IC50 on Pim1, Table X.

By UniProt entry, the sequences of proteins in these tests, tags left out.
UniProt P11309, whole entry: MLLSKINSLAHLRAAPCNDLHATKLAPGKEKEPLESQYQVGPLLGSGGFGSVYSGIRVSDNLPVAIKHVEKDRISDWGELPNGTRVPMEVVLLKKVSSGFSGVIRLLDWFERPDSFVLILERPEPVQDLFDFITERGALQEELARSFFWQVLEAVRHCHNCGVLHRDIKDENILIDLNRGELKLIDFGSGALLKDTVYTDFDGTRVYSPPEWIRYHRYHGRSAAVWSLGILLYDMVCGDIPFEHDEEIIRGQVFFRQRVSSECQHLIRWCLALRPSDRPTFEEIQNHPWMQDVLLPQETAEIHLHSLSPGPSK

SMILES strings stand for the structures.

Turning to `CO[C@H]1CC[C@H](Nc2ccc3ncc(-c4cccc(OC(F)(F)F)c4)n3n2)CC1` [Compound 8-11, 4-(trans-Methoxycyclohexyl)-3-(3-(trifluoromethoxy)phenyl)imidazo[1,2-b]pyridazin-6-amine], the IC50 was under 0.01 µM.

(Values after patent publication US20120058997A1, “IMIDAZO[1,2-B]PYRIDAZINE AND PYRAZOLO[1,5-A]PYRIMIDINE DERIVATIVES AND THEIR USE AS PROTEIN KINASE INHIBITORS” (SuperGen, Inc., priority 2006, published 2012).)
